# System: human red blood cells
# Format: cell-based
# Description: Cells were pelleted by centrifugation for 10 min, 800xg at RT.
substance,measurement,value
"trastuzumab-SO1861 (DAR4): antibody-SO1861 conjugate, DAR4",initial hemolytic activity from ... onwards,≥ 60.000 nM
